Experimental data from PubChem BioAssay AID1239 (SRMLSC, 2008).
The list shows a part of the results, in another mix than the full data. Calls of active or inactive are those of the source. No stated cut-off is given here; in the data, active means fold change above about 3.3; inconclusive means no clear call, values can overlap the other calls; inactive means below that.

Assay: activators of NF-kB expression in neurons, primary screen, cell-based, HTS (AID 1239)
Details: human neuronal cells, NF-kB reporter expression; at 12.5 µM; active compounds read high

For CP(=S)(Nn1cnnc1)Oc1ccccc1 (centres undefined), which fold change is on record?
The fold change was inactive: 1.12.

For COc1ccccc1OP(C)(=O)Nc1ccccc1 (centres undefined), which fold change is on record?
The fold change was inactive: 1.1.

For CP(=O)(Nc1ccccc1Br)Oc1ccccc1 (centres undefined), which fold change is on record?
Its fold change is inactive: 1.02.

For CCOP(C)(=S)SCC(=O)NC(C)C(=O)O (centres undefined), which fold change is on record?
Its fold change is inactive: 1.34.

Which fold change does the source give for CCOC(=O)c1ccc(NP(C)(=O)Oc2ccc(OC)cc2)cc1 (centres undefined) here?
Its fold change is inactive: 1.

For CP(=O)(Nc1ccccn1)Oc1ccc(Cl)cc1 (centres undefined), which fold change is on record?
Its fold change is inactive: 0.94.

For CP(=O)(Oc1ccccc1)OC(c1ccccc1)C(F)(F)F (centres undefined), which fold change is on record?
Its fold change is inactive: 1.04.

For Cc1cccc(C)c1OP(C)(=O)Nc1ccc(SC(F)(F)F)cc1 (centres undefined), which fold change is on record?
Its fold change is inactive: 0.79.

With Cc1cc(C)cc(OP(C)(=O)Nc2ccc(SC(F)(F)F)cc2)c1 (centres undefined) as the compound, how does the fold change read?
Its fold change is inactive: 1.32.

With CP(=O)(NC(=O)Nc1ccccc1)Oc1ccccc1 (centres undefined) as the compound, how does the fold change read?
The fold change was inactive: 1.15.

For CCN(CC)CCCOC(=O)C(O)(c1ccccc1)c1ccccc1, which fold change is on record?
The fold change was inactive: 1.02.

With CCOC(=O)c1ccc(NP(C)(=O)Oc2ccccc2)cc1 (centres undefined) as the compound, how does the fold change read?
Its fold change is inactive: 1.01.

With Cc1ccc(NP(C)(=O)Oc2ccccc2)c(C)c1 (centres undefined) as the compound, how does the fold change read?
The fold change was inactive: 1.21.

For COc1ccccc1OP(C)(=O)Nc1ccc(C)cc1 (centres undefined), which fold change is on record?
Its fold change is inactive: 1.13.

Which fold change does the source give for COc1ccc(OP(C)(=O)Nc2cccc(F)c2)cc1 (centres undefined) here?
Its fold change is inactive: 1.16.

For COc1ccccc1OP(C)(=O)Nc1cc(Cl)ccc1C (centres undefined), which fold change is on record?
The fold change was inactive: 1.15.

For Cc1cc(C)cc(OP(C)(N)=O)c1 (centres undefined), which fold change is on record?
The fold change was inactive: 1.35.

Which fold change does the source give for Cc1cccc(C)c1OP(C)(N)=O (centres undefined) here?
The fold change was inactive: 1.21.

With CC(C)(C)c1ccc(OP(C)(=O)Nc2ccc(SC(F)(F)F)cc2)cc1 (centres undefined) as the compound, how does the fold change read?
Its fold change is inactive: 1.21.

Which fold change does the source give for O=[N+]([O-])c1ccc2c(c1)C=Nc1ccccc1O2 here?
Its fold change is inactive: 2.37.

For CC1=NCCc2c1[nH]c1ccccc21.O=[N+]([O-])c1cc([N+](=O)[O-])c(O)c([N+](=O)[O-])c1, which fold change is on record?
Its fold change is inactive: 1.13.

Which fold change does the source give for CP(=O)(Nc1cccc(Br)c1)Oc1ccccc1 (centres undefined) here?
Its fold change is inactive: 1.19.

For Cc1cc(C)cc(OP(C)(=O)Nc2ccccn2)c1 (centres undefined), which fold change is on record?
The fold change was inactive: 1.

For Cc1ccc(C)c(NP(C)(=O)Oc2ccccc2)c1 (centres undefined), which fold change is on record?
Its fold change is inactive: 1.04.

Which fold change does the source give for Cc1cc(C)cc(OP(C)(=O)Nc2ccc(C)cc2C)c1 (centres undefined) here?
Its fold change is inactive: 0.99.

With CCOC(=O)c1ccc(NP(C)(=O)Oc2cc(C)cc(C)c2)cc1 (centres undefined) as the compound, how does the fold change read?
Its fold change is inactive: 1.31.

With Cc1nc2ccc3ccccc3c2s1.O=[N+]([O-])c1cc([N+](=O)[O-])c(O)c([N+](=O)[O-])c1 as the compound, how does the fold change read?
The fold change was inactive: 1.3.

For O=[N+]([O-])c1cc([N+](=O)[O-])c(-n2nnc3ccccc32)c([N+](=O)[O-])c1, which fold change is on record?
Its fold change is inactive: 0.95.

For CN1CCCCC1COC(=O)C1(O)c2ccccc2CCc2ccccc21 (centres undefined), which fold change is on record?
The fold change was inactive: 1.04.

For COc1ccccc1OP(C)(=O)Nc1c(C)cccc1C (centres undefined), which fold change is on record?
The fold change was inactive: 1.15.

Which fold change does the source give for CP(=O)(Nc1ccc(SC(F)(F)F)cc1)Oc1ccccc1 (centres undefined) here?
Its fold change is inactive: 1.16.

Which fold change does the source give for CCCOc1ccc(NP(C)(=O)Oc2ccc(Cl)cc2)cc1 (centres undefined) here?
Its fold change is inactive: 1.01.

For O=[N+]([O-])c1cc([N+](=O)[O-])c(NCC2CCS(=O)(=O)C2)c([N+](=O)[O-])c1 (centres undefined), which fold change is on record?
Its fold change is inactive: 1.05.

Which fold change does the source give for COc1ccc(OP(C)(=O)Nc2cccc(Br)c2)cc1 (centres undefined) here?
Its fold change is inactive: 0.94.

With COc1ccc(NP(C)(=O)Oc2ccccc2OC)cc1 (centres undefined) as the compound, how does the fold change read?
Its fold change is inactive: 1.33.

With CN(C)CCOC(=O)C(O)(c1ccccc1)C1CCCCC1 (centres undefined) as the compound, how does the fold change read?
The fold change was inactive: 1.05.

For CP(=O)(Nc1ccc2c(c1)OCCO2)Oc1ccccc1 (centres undefined), which fold change is on record?
The fold change was inactive: 0.83.

With Cc1ccccc1NP(C)(=O)Nc1ccccc1C as the compound, how does the fold change read?
The fold change was inactive: 1.26.

For CCOP(C)(=S)SCC(=O)NC(C)(CC)C(=O)O (centres undefined), which fold change is on record?
The fold change was inactive: 1.53.

Which fold change does the source give for O=C(OCCN1CCN(CCOCc2ccccc2)CC1)C(O)(c1ccccc1)c1ccccc1 here?
Its fold change is inactive: 1.13.

For CC(C)c1ccc(OP(C)(=O)Nc2ccc(SC(F)(F)F)cc2)cc1 (centres undefined), which fold change is on record?
Its fold change is inactive: 1.26.

For CP(=O)(Nc1ccccc1F)Oc1ccccc1 (centres undefined), which fold change is on record?
The fold change was inactive: 1.12.

For CCN(CC)CCCOC(=O)C(O)(c1ccccc1)C1CCCCC1 (centres undefined), which fold change is on record?
Its fold change is inactive: 1.07.

Which fold change does the source give for CP(=O)(Nc1ccccc1)Oc1ccc(F)cc1 (centres undefined) here?
The fold change was inactive: 1.17.

Which fold change does the source give for COc1ccc(OP(C)(=O)Nc2ccc(SC(F)(F)F)cc2)cc1 (centres undefined) here?
The fold change was inactive: 0.85.

For CCOC(=O)c1ccc(NP(C)(=O)Oc2ccc(F)cc2)cc1 (centres undefined), which fold change is on record?
The fold change was inactive: 1.39.

For Cc1nc2ccc3ccccc3c2o1.O=[N+]([O-])c1cc([N+](=O)[O-])c(O)c([N+](=O)[O-])c1, which fold change is on record?
Its fold change is inactive: 1.87.

For CP(=O)(OCCOc1ccccc1)OCCOc1ccccc1, which fold change is on record?
Its fold change is inactive: 1.04.

For CP(=O)(Nc1ccc(Cl)cc1Cl)Oc1ccccc1 (centres undefined), which fold change is on record?
The fold change was inactive: 1.27.

With Cc1cc(C)cc(OP(C)(=O)Nc2cccc(C(F)(F)F)c2)c1 (centres undefined) as the compound, how does the fold change read?
The fold change was inactive: 1.08.

Which fold change does the source give for COc1ccc(OP(C)(=O)Nc2ccccc2Br)cc1 (centres undefined) here?
The fold change was inactive: 1.15.

For COc1ccccc1OP(C)(=O)Nc1ccc(C)c(C)c1 (centres undefined), which fold change is on record?
The fold change was inactive: 1.14.

With O=[N+]([O-])c1cc([N+](=O)[O-])c(Nc2ccccn2)c([N+](=O)[O-])c1 as the compound, how does the fold change read?
Its fold change is inactive: 0.48.

With Cc1c(NP(C)(=O)Oc2ccc(C(C)C)cc2)c(=O)n(-c2ccccc2)n1C (centres undefined) as the compound, how does the fold change read?
The fold change was inactive: 1.07.

Which fold change does the source give for CCc1ccc(OP(C)(=O)O)cc1 here?
The fold change was inactive: 1.12.

Which fold change does the source give for COc1ccccc1OP(C)(=O)Nc1ccc(C)cc1C (centres undefined) here?
The fold change was inactive: 0.88.

Which fold change does the source give for CP(=O)(Nc1ccccn1)Oc1ccccc1 (centres undefined) here?
The fold change was inactive: 1.31.

With CN(C)CCOC(=O)C(O)(c1ccccc1)C1CCCC1 (centres undefined) as the compound, how does the fold change read?
The fold change was inactive: 1.04.

For COc1ccc(OP(C)(=O)Nc2ccccn2)cc1 (centres undefined), which fold change is on record?
The fold change was inactive: 0.99.

Which fold change does the source give for CP(=O)(Nc1ccc(Cl)cc1)Oc1ccc(F)cc1 (centres undefined) here?
Its fold change is inactive: 1.2.

With CC(C)(C)c1ccc(OP(C)(=O)O)cc1 as the compound, how does the fold change read?
The fold change was inactive: 0.88.

Which fold change does the source give for COc1ccccc1OP(C)(=O)Nc1ccccc1Br (centres undefined) here?
Its fold change is inactive: 1.04.

With CN(C)C(=O)c1c([N+](=O)[O-])cc([N+](=O)[O-])cc1[N+](=O)[O-] as the compound, how does the fold change read?
The fold change was inactive: 0.53.

For COc1ccc(OP(C)(=O)Nc2ccc(Br)cc2)cc1 (centres undefined), which fold change is on record?
The fold change was inactive: 1.19.

With CCN(CC)CC(O)COC(=O)C(O)(c1ccccc1)C1CCCCC1 (centres undefined) as the compound, how does the fold change read?
Its fold change is inactive: 1.05.

For CCc1ccc(OP(C)(=O)Nc2cccnc2)cc1 (centres undefined), which fold change is on record?
The fold change was inactive: 1.09.

For CP(=O)(Oc1ccccc1)N1CCOC1=O (centres undefined), which fold change is on record?
The fold change was inactive: 1.34.

With CP(=O)(OC12CC3CC(CC(C3)C1)C2)OC12CC3CC(CC(C3)C1)C2 as the compound, how does the fold change read?
Its fold change is inactive: 0.9.

For CCOC(=O)c1ccc(NP(C)(=O)Oc2ccc(Cl)cc2)cc1 (centres undefined), which fold change is on record?
Its fold change is inactive: 1.24.
